Test results: ChEMBL document CHEMBL1128179, “Structure-activity study of tripeptide thrombin inhibitors using alpha-alkyl amino acids and other conformationally constrained amino acid substitutions” (J Med Chem, 1995)

Amino acid sequences for entries named in this document (tags omitted). Residues count along the entry.
UniProt P00747, 97-580 limits assumed: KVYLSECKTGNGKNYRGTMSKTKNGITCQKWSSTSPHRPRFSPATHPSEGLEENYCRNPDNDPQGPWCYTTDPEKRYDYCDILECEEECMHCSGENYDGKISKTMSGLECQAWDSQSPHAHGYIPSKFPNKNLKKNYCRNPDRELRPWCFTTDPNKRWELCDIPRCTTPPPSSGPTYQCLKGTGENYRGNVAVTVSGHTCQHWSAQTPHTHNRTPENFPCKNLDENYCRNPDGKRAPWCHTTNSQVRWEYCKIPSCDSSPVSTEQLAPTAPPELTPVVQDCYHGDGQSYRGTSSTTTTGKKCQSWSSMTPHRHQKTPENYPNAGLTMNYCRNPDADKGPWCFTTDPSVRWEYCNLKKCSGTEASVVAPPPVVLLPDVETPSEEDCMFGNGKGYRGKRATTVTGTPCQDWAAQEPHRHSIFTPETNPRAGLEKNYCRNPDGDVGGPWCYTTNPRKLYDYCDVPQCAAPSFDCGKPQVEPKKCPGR
UniProt P00747, 581-810 limits assumed: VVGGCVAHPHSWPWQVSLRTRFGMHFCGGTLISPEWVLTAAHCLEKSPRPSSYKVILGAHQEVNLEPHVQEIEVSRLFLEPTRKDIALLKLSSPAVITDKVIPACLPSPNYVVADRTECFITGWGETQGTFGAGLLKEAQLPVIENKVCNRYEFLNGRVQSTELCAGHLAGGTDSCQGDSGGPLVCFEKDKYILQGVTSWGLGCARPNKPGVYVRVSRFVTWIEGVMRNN

Target: Plasminogen (Homo sapiens, UniProt P00747)
Assay: In vitro Enzyme Inhibitory activity measured against Plasmin

`N=C(N)NCCC[C@@H](C=O)NC(=O)[C@@H]1CCCN1C(=O)[C@@H]1Cc2ccccc2CN1` was tested. Which IC50 did it give?
Its IC50 is 1500 nM.
